Source: patent US20130210888

System: diMeK4H3 (1-21 aa) synthetic histone H3 peptide (UP12-460)

Substance: histidine epitope-tagged LSD1 (HIS-LSD1), full length (1-851aa) human LSD1
- apparent Km (demethylation-FDH coupled spectrophotometric assay, Lineweaver-Burk): approximately 30 µM
